Among the data in ChEMBL document CHEMBL1125656, “Novel indole-2-carboxylates as ligands for the strychnine-insensitive N-methyl-D-aspartate-linked glycine receptor” (J Med Chem, 1991) are Ki values, retold here.

This assay deals with Glutamate NMDA receptor. As to the kind of experiment: Inhibition of strychnine-insensitive [3H]glycine binding to the N-methyl-D-aspartate glutamate receptor of synaptic plasma membranes(SPM) prepared from rat forebrain. The format is cell-free. The essentials:
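Rat forebrain synaptic plasma membranes (male Sprague-Dawley, 30–45 days old), Triton X-100-washed; 0.2–0.4 mg incubated with 10 nM [3H]glycine and a range of compound concentrations in triplicate, in 50 mM Tris/acetate pH 7.4, for 10 min at 2 °C. Bound ligand separated by centrifugation (12000g, 15 min, 4 °C) or GF/B filtration, then scintillation counted. Nonspecific binding set with 100 μM glycine. Ki derived by logit-log analysis.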

For orientation: Ki means the equilibrium dissociation constant of an inhibitor or competing ligand from its target. Low readings indicate higher affinity, high ones lower affinity.

Consider `COC(=O)Cc1c(C(=O)O)[nH]c2cc(Cl)ccc12`, for which the affinity corresponds to a Ki of 1560 nM.
